Measured values published in PubChem BioAssay AID887 (National Center for Advancing Translational Sciences (NCATS), 2007).
The list shows a part of the results, in another mix than the full data. Records with an inconclusive call do not appear. Calls of active or inactive are those of the source. Calls follow the shape of the dose curve; as a rule, active = well fitted inhibition curve with a large enough effect; inconclusive = small, poorly fitted or top-dose-only effect; inactive = no such curve, though single readings can be large or run the other way.
% is scaled to controls: 0 for no effect and ±100 for the full control effect.
Also: nearly all actives have a fitted effect of over 55% in size.

Sequences of proteins named here, by UniProt entry; tags and fusion partners are left off.
UniProt P16050, whole entry: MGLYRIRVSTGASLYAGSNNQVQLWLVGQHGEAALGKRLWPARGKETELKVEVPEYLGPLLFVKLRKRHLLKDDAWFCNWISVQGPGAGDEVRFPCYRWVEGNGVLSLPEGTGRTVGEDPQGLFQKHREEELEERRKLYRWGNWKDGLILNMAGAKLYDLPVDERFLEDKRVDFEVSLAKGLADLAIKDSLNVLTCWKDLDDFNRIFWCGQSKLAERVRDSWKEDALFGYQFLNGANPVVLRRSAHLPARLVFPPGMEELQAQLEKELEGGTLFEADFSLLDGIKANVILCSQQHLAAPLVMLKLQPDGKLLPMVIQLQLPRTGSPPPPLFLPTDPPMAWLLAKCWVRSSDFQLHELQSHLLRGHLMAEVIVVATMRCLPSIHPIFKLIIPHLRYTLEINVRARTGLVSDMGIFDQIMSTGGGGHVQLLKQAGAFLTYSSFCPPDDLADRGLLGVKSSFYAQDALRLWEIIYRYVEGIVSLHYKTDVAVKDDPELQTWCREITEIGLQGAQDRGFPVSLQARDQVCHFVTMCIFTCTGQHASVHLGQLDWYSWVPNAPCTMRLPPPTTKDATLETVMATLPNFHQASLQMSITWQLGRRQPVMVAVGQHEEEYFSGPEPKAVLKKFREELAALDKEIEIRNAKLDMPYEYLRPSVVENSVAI

These molecules were tested against Polyunsaturated fatty acid lipoxygenase ALOX15 (Homo sapiens) (UniProt P16050) (assay: qHTS Assay for Inhibitors of 15-hLO (15-human lipoxygenase)). Settings: purified 15hLO-1, xylenol orange hydroperoxide absorbance; at 57.1 µM (top of the series) unless noted.
With `Cc1nc2ccc3ccccc3c2s1.O=[N+]([O-])c1cc([N+](=O)[O-])c(O)c([N+](=O)[O-])c1` the activity change, negative = inhibition was inactive: -9.17%. For `Cc1ccc([N+](=O)[O-])cc1[N+](=O)[O-]`, the activity change, negative = inhibition was inactive: -6.53%. `O=[N+]([O-])c1cccc([N+](=O)[O-])c1` was tested, and the activity change, negative = inhibition was inactive: 1.75%. In the case of `Cc1ccc(C)c(NP(C)(=O)Oc2ccccc2)c1` (centres undefined), the activity change, negative = inhibition is reported as inactive: 0.472%. With `O=[N+]([O-])[O-].[NH4+]` the activity change, negative = inhibition was inactive: 3.74%. For `COc1ccccc1OP(C)(=O)Nc1ccc(C)cc1` (centres undefined), the activity change, negative = inhibition was inactive: 8.9%. With `Cc1ccc(NP(C)(=O)Oc2ccccc2)c(C)c1` (centres undefined) the activity change, negative = inhibition was inactive: 4.79%. With `CP(=S)(Nn1cnnc1)Oc1ccccc1` (centres undefined) the activity change, negative = inhibition was inactive: 2.24%. With `N1=C(c2nnc(-c3nn[nH]n3)nn2)NNN1` the activity change, negative = inhibition was inactive: 5.01% [at 11.4 µM]. For `CCOP(C)(=S)SCC(=O)NC(C)C(=O)O` (centres undefined), the activity change, negative = inhibition was inactive: 1.91%. With `CP(=O)(NC(=O)Nc1ccccc1)Oc1ccccc1` (centres undefined) the activity change, negative = inhibition was inactive: 1.14%. In the case of `CP(=O)(Oc1ccccc1)N1CCOC1=O` (centres undefined), the activity change, negative = inhibition is reported as inactive: 9.51%. With `OCCSCCO` the activity change, negative = inhibition was inactive: -1.99%. `N#[O+].[C-]#N.[C-]#N.[C-]#N.[C-]#N.[C-]#N.[Fe+2].[Na+].[Na+]` was tested, and the activity change, negative = inhibition was inactive: -13.7%. With `C/C1=C2N=C(/C=C3N=C(/C(C)=C4\[N-][C@@](C)([C@H]5N=C1[C@@](C)(CCC(=O)NC[C@H](C)OP(=O)([O-])O[C@@H]1[C@H](O)[C@H](n6cnc7cc(C)c(C)cc76)O[C@@H]1CO)[C@@H]5CC(N)=O)[C@](C)(CC(N)=O)[C@H]4CCC(N)=O)[C@@](C)(CC(N)=O)[C@@H]\3CCC(N)=O)C(C)(C)[C@@H]/2CCC(N)=O.[C-]#N.[Co+3]` the activity change, negative = inhibition was inactive: 6.47% [at 25.6 µM]. `COc1ccccc1OP(C)(=O)Nc1ccc(C)c(C)c1` (centres undefined) was tested, and the activity change, negative = inhibition was inactive: 15.2%. `CP(=O)(Nc1ccccn1)Oc1ccccc1` (centres undefined) was tested, and the activity change, negative = inhibition was inactive: 5.29%. With `CP(=O)(Nc1ccccc1F)Oc1ccccc1` (centres undefined) the activity change, negative = inhibition was inactive: 0.141%. With `CCC(C)(OO)OOC(C)(CC)OO` (centres undefined) the activity change, negative = inhibition was inactive: -23%. `Cc1cccc([N+](=O)[O-])c1[N+](=O)[O-]` was tested, and the activity change, negative = inhibition was inactive: 4.64%. `Cc1c([N+](=O)[O-])cccc1[N+](=O)[O-]` was tested, and the activity change, negative = inhibition was inactive: -3.01%. In the case of `Cc1ccc([N+](=O)[O-])c([N+](=O)[O-])c1`, the activity change, negative = inhibition is reported as inactive: 1.08%. `CN(C)CCOC(=O)C(O)(c1ccccc1)C1CCCCC1` (centres undefined) was tested, and the activity change, negative = inhibition was inactive: -2.4%. With `Cc1ccccc1NP(C)(=O)Nc1ccccc1C` the activity change, negative = inhibition was inactive: -1.75%. With `CCN(CCCl)Cc1ccccc1C` the activity change, negative = inhibition was inactive: -2.58%. For `[NH4+].[O-][Cl+3]([O-])([O-])[O-]`, the activity change, negative = inhibition was inactive: -1.51%. For `CP(=O)(Nc1ccc2c(c1)OCCO2)Oc1ccccc1` (centres undefined), the activity change, negative = inhibition was inactive: 13.4%. `CCOP(=O)(CC)OCC` was tested, and the activity change, negative = inhibition was inactive: -9.51%. `CCOP(C)(=S)SCC(=O)NC(C)(CC)C(=O)O` (centres undefined) was tested, and the activity change, negative = inhibition was inactive: -6.67%.
